CycPeptMPDB entries from one study

Data: CycPeptMPDB; original report Lee et al. 2022, doi:10.1016/j.bmc.2022.116862.

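Lipid, pH, incubation time, direction and concentration are not recorded in the data file. Other peptides of the study may be missing here. Peptides that the database sets to -10, its floor, are left out.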

PAMPA measures passive passage through an artificial lipid membrane.
Values are log10 P with P in cm/s, so -5 is more permeable than -7.

PAMPA (log10 cm/s)	SMILES
-7.96	CCC[C@@H]1NC(=O)[C@H](CC(C)C)N(C)C(=O)[C@H](CC(C)C)N(C)C(=O)CN(C)C(=O)[C@H](CC(C)C)N(C)C(=O)[C@@H](C)NC(=O)[C@H](CCC(N)=O)NC(=O)[C@H](CC(C)C)N(C)C(=O)[C@H](C(C)C)NC(=O)[C@H](CC(C)C)N(C)C(=O)CN(C)C1=O
-8.10	CCC[C@@H]1NC(=O)[C@H](CC(C)C)N(C)C(=O)[C@H](CC(C)C)N(C)C(=O)[C@H](CC(C)C)N(C)C(=O)CN(CCO)C(=O)[C@@H](C)NC(=O)[C@H](CCC(N)=O)NC(=O)[C@H](CC(C)C)N(C)C(=O)[C@H](C(C)C)NC(=O)[C@H](CC(C)C)N(C)C(=O)CN(C)C1=O
-7.85	CCC[C@@H]1NC(=O)[C@H](CC(C)C)N(C)C(=O)[C@H](CC(C)C)N(C)C(=O)[C@H](CC(C)C)N(C)C(=O)CN(CC(C)C)C(=O)[C@@H](C)NC(=O)[C@H](CCC(N)=O)NC(=O)[C@H](CC(C)C)N(C)C(=O)[C@H](C(C)C)NC(=O)[C@H](CC(C)C)N(C)C(=O)CN(C)C1=O
-8.15	CCC[C@@H]1NC(=O)[C@H](CC(C)C)N(C)C(=O)[C@H](CC(C)C)N(C)C(=O)[C@H](CC(C)C)N(C)C(=O)[C@H](CC(C)C)N(C)C(=O)[C@@H](C)NC(=O)[C@H](CCC(N)=O)NC(=O)[C@H](CC(C)C)N(C)C(=O)[C@H](C(C)C)NC(=O)CN(CCCCN)C(=O)CN(C)C1=O
-8.40	CCC[C@@H]1NC(=O)[C@H](CC(C)C)N(C)C(=O)[C@H](CC(C)C)N(C)C(=O)[C@H](CC(C)C)N(C)C(=O)[C@H](CC(C)C)N(C)C(=O)[C@@H](C)NC(=O)[C@H](CCC(N)=O)NC(=O)[C@H](CC(C)C)N(C)C(=O)[C@H](C(C)C)NC(=O)CN(CCO)C(=O)CN(C)C1=O
-8.00	CCC[C@@H]1NC(=O)[C@H](CC(C)C)N(C)C(=O)[C@H](CC(C)C)N(C)C(=O)[C@H](CC(C)C)N(C)C(=O)[C@H](CC(C)C)N(C)C(=O)[C@@H](C)NC(=O)[C@H](CCC(N)=O)NC(=O)[C@H](CC(C)C)N(C)C(=O)[C@H](C(C)C)NC(=O)[C@H](CC(C)C)N(C)C(=O)CN(C)C1=O
-7.89	CCC[C@@H]1NC(=O)[C@H](CC(C)C)N(C)C(=O)[C@H](CC(C)C)N(C)C(=O)CN(Cc2ccccc2)C(=O)[C@H](CC(C)C)N(C)C(=O)[C@@H](C)NC(=O)[C@H](CCC(N)=O)NC(=O)[C@H](CC(C)C)N(C)C(=O)[C@H](C(C)C)NC(=O)[C@H](CC(C)C)N(C)C(=O)CN(C)C1=O